Tested on: C57BL/KsJ db/db mice
Assay: Serum insulin content and insulin resistance index in db/db diabetic mice
Assay type: in vivo
Settings: gavage, end of 1 month treatment, nanoparticles 100 mg/kg every 3 days, LA monomer 100 mg/kg and metformin 120 mg/kg daily
Protocol: 8-week male C57BL/KsJ db/db mice, SPF grade, provided by Jiangsu GemPharmatech Co. Ltd., Changzhou Branch, certificate number: 202012449, with an initial weight of 44±2 g, underwent adaptive feeding for one week. A total of 24 C57BL/KsJ db/db mice were randomly divided into 4 groups according to body weight and blood glucose, with 6 mice in each group. They were db/db model group, db/db+lipoic acid nanoparticle group (100 mg/kg), db/db+lipoic acid monomer group (100 mg/kg) and db/db+metformin group (120 mg/kg). There were 6 littermate w/w male mice of the same week age as the solvent control group. […] After administration of a single dose, the blood glucose changes of mice were continuously monitored for 3 days. During the 1-month treatment cycle, the blood glucose changes of the mice were detected every 3 days. […] The mice were killed by enucleation and bloodletting, serum samples were collected by centrifugation at room temperature, the serum insulin content was detected by mouse insulin ELISA detection kit, and the insulin resistance index was calculated, and the percentage of the drug to reduce the serum insulin content and insulin resistance index was calculated based on the difference between the model and the normal control group. The results of the quantitative experiment were expressed as mean±variance (x±s). […]

O=C(O)CCCCC1CCSS1 (stereo not shown) [LA monomer, lipoic acid]
decrease of insulin resistance index: no significant difference

From patent publication US20240398756A1, “DRUG FOR REDUCING BLOOD GLUCOSE AND/OR TREATING DIABETIC COMPLICATIONS” (SICHUAN UNIVERSITY, priority 2022, published 2024)
